Experiments:
[1] = Stability of flavonoids in D-Hank's buffer relative to methanol; assay type: physicochemical; conditions: 20 μM flavonoid, HPLC peak area in D-Hank's / peak area in methanol × 100%
Caco-2 cell monolayer = assay: Cellular accumulation (CA) of flavonoids in Caco-2 cell monolayer; conditions: Caco-2 monolayer

O=C1C[C@@H](c2ccc(O)cc2)Oc2cc(O)ccc21 [Compound 21, Liquiritigenin]
Relative concentration of flavonoids, D-Hank's/methanol (%) [1]: 71.02% | Ratioc (ratio of CA B to A to CA A to B) (Caco-2 cell monolayer): 1.94

From article PMC5748751, “Study of Structure and Permeability Relationship of Flavonoids in Caco-2 Cells” (Nutrients, 2017)
